From PMC12471865

Target: Bruton's tyrosine kinase (BTK) (Homo sapiens, UniProt Q06187)
Assay: BTK degradation (DC50) in TMD-8 cells, […] h; rescued by competition with ibrutinib
Conditions: read-out: BTK degradation (DC50) in TMD-8 cells, 8 h, rescued by competition with ibrutini

Molecule Cc1c(C#CCNC(=O)c2ccc(CCNC(=O)CN3CCC[C@@H](n4nc(-c5ccc(Oc6ccccc6)cc5)c5c(N)ncnc54)C3)cc2)cccc1N1CCC(=O)NC1=O has a DC50 of 14 nM.
